## Binding of CDR-mutated scFvs to a peptide of the spike HR2 region

Reference: Li et al. 2023, doi:10.1038/s41467-023-39022-2. File: FLAb, binding data.

Binding partner: SARS-CoV-2 spike HR2 peptide, sequence PDVDLGDISGINAS.

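The starting antibody came from a phage panning campaign against this peptide. This is the validation round: designs drawn from the data on random variants, tested in the same kind of assay. Their group label is 14L_En_HC (En: ensemble of fine-tuned language models; HC: hill climbing; a sequence that several methods proposed may carry one label only). AlphaSeq pools MATa yeast showing the antibodies with MATalpha yeast showing the peptide. Pairs that bind mate more often; barcode pairs of the diploids are counted by sequencing. Each replicate has its own calibration line, from reference interactions of the BCL2 family. There are six technical replicates.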

The variants keep the heavy chain, the linker and the frameworks of Ab-14 (scFv order VH, a (GGGGS)3 linker, VL).
VH: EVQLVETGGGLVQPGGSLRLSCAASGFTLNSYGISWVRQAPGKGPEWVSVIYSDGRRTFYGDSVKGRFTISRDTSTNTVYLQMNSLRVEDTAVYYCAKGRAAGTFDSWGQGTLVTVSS
VL: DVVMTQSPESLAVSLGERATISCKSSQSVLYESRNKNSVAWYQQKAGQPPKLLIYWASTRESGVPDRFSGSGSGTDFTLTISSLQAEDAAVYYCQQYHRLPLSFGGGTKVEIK

Each variant is given by its three light chain CDRs, as the data file delimits them; those of the parent are KSSQSVLYESRNKNSVA, WASTRES, QQYHRLPLS. Affinities are written as log10 Kd with Kd in nM; a lower number is a better binder. "ND" means that the variant was in the library but no mating with the target was seen in that replicate; the authors take this as a sign of poor binding, and no number exists.

| # | CDR-L1 | CDR-L2 | CDR-L3 | log10 Kd, replicates | signal with controls |
|---|---|---|---|---|---|
| 1 | MFSQLFMTGSRNYNSVA | QASTRES | QQYHRLPLI | 1.00 / 1.41 / 1.05 / 0.97 / 1.24 / 1.08 | 2/18 (2.93) |
| 2 | TLTQVTGMESHNKNSVA | DLSTRGS | QQYHRLPLS | 0.51 / 0.60 / 0.63 / 0.62 / 0.49 / 0.60 | 1/18 (2.56) |
| 3 | KLSMSMLMESRHTNSVA | ENSTRES | QHYHRLPLS | ND / 1.79 / 0.98 / 3.98 / 2.80 / 2.14 | 0/18 |
| 4 | ALSQSMDMTSRNINSVA | DLTTREN | QQYHRLPLS | 0.44 / 0.13 / 0.12 / 0.14 / 0.14 / 0.18 | 0/18 |
| 5 | TISQSTYWEEFNKNSVA | QTSTREE | QDYDRLPLS | ND / ND / ND / ND / ND / ND | 0/18 |
| 6 | TLMQVGGYEMNAHNSIA | DLRTRED | QQYHRLPLS | 2.16 / 0.29 / 0.48 / 0.50 / 1.07 / 0.86 | 1/18 (1.56) |
| 7 | KLSSFHNVESINKSNVA | EMVTREN | QQYDRLPLS | 1.38 / 2.17 / ND / ND / 1.41 / 2.38 | 0/18 |
| 8 | IISGSMVMESRNKNSVA | NAETREY | QHYDRLPLS | 1.30 / 0.83 / 1.04 / 0.87 / 1.01 / 1.07 | 0/18 |
| 9 | KLYESVGTMSHNKQSIA | DMERRED | QQYHRLPLS | 0.32 / -0.52 / 0.01 / -0.34 / -0.39 / -0.24 | 0/18 |
| 10 | TISMMVGTKGYNKNSVA | NAETRED | QQYHRLPLS | 0.92 / 0.94 / 1.10 / 1.48 / 1.68 / 0.92 | 1/18 (3.12) |
| 11 | HLLQTVMYGSTRKNSVA | HAQTREN | QQYHRLPLA | ND / 2.11 / ND / ND / 3.61 / 2.06 | 0/18 |
| 12 | TIAQSMLYLSNTKNSIA | QAETRES | QQYHRLPIS | 0.36 / 0.16 / 0.06 / -0.01 / 0.39 / 0.21 | 1/18 (1.49) |
| 13 | TISQLMLYETRNKNNVA | GTSTREQ | QCYHRLPLS | 0.76 / 0.61 / 0.47 / 0.33 / 0.54 / 0.48 | 2/18 (2.32) |
| 14 | KLSATYRYESQNKNSIA | EMSTRMS | QCYHRLPLS | 1.49 / 1.11 / 0.39 / 1.57 / 1.41 / 1.35 | 0/18 |
| 15 | KISMLYNYESTNKNNIA | EMTTRES | QHYHRLPLS | 1.76 / 1.45 / 2.00 / 0.78 / 0.94 / 0.98 | 0/18 |
| 16 | KLRQVTGYESYLKNSVA | QTSERAS | QDYHRLPLS | 1.43 / 2.71 / 1.15 / 1.40 / 0.83 / 1.56 | 0/18 |
| 17 | KISGTYQKESKNKNSVA | EMVNRES | QQYDRLPLS | 0.90 / 0.26 / 0.60 / 0.57 / 0.36 / 0.47 | 1/18 (3.29) |
| 18 | KLRQVTGYESYNKNSVA | QTSTRVQ | QDYHRLPLS | 1.36 / 1.62 / 2.12 / 2.60 / 1.36 / 2.09 | 1/18 (2.09) |
| 19 | HISQMWMLESKNKNNVA | EENTRED | QSYFRLPLS | 1.20 / 0.71 / 1.32 / 1.15 / 0.55 / 0.53 | 0/18 |
| 20 | IISGSMLMESRNKNSVA | NAETRPY | QHYDRLPLS | 2.34 / 2.98 / 1.77 / 1.14 / 1.60 / 1.88 | 1/18 (2.75) |
| 21 | KLSMSVRMESFNKDNVA | ENSTREA | QDYHRLPLS | ND / ND / ND / ND / ND / ND | 0/18 |
| 22 | NISQMFMMETKNVNNVA | QTSTRES | QDYHRLPLS | -0.17 / -0.21 / -0.33 / -0.36 / -0.28 / -0.15 | 0/18 |
| 23 | LISSVWDYGSRNYNSVA | QTSTREE | QQYDRLPLE | 1.32 / 1.25 / ND / ND / ND / ND | 0/18 |
| 24 | TISQMWFVESKNKNNVA | EMTTREN | QDYDRLPLS | ND / 1.14 / 1.15 / 1.86 / 1.78 / 2.58 | 0/18 |
| 25 | KITGMWTFESHNRQNIA | EESTRED | QSYHRLPLS | 0.38 / 0.21 / 0.02 / 0.25 / 0.22 / 0.30 | 0/18 |
| 26 | TISTSMRYQSSLKNAIA | NAQTRES | QQYHRLPLS | 0.73 / 0.44 / 0.65 / 0.06 / 1.18 / 0.66 | 0/18 |
| 27 | KLLQEVTGHSRNKYSVA | HNSTRED | QQYDRLPLS | ND / ND / ND / 3.04 / ND / ND | 2/18 (2.22) |
| 28 | KISQSILFHSGKKNAIA | QMEMREE | QQYDRLPLS | 0.38 / 0.92 / 0.38 / 0.87 / 0.76 / 1.27 | 0/18 |
| 29 | KLYMLTGYESRNADSIA | DNSTRGR | QQYHRLPLS | 2.64 / 2.89 / 1.05 / 0.90 / 2.08 / 1.83 | 0/18 |
| 30 | TLSQSMDMTSRNVNSVA | DLNTRGN | QQYHRLPLS | ND / 2.06 / ND / 1.87 / ND / 2.22 | 0/18 |
| 31 | VISESVMYESRNRNSVA | DNSTRED | QCYDRLPLS | 0.08 / -0.36 / -0.46 / -0.58 / -0.27 / -0.06 | 3/18 (2.83) |
| 32 | KLSAATYRESMHENNVA | DLRARVE | QQYHRLPLS | 0.15 / 0.31 / 0.14 / 0.26 / 0.27 / 0.63 | 1/18 (2.05) |
| 33 | TISQMFLGESRNRNSVA | QASTRES | QAYDRLPLS | 1.48 / 0.93 / 1.37 / 2.03 / 1.36 / 1.29 | 3/18 (2.26) |
| 34 | MLSDLVKMGSRNSNSVA | DNSTRGS | QQYDRLPLS | 1.91 / 1.84 / ND / 1.19 / 1.28 / 1.45 | 0/18 |
| 35 | KFSQSVLYESRTKNSVA | NASTRES | QQYHRLPLS | -0.02 / -0.05 / -0.20 / 0.03 / 0.07 / -0.12 | 0/18 |
| 36 | KLRQVTGYESYSKNSVA | QTSTRAS | QDYHRLPLS | 1.24 / 1.09 / 1.62 / 1.03 / 0.67 / 1.46 | 0/18 |
| 37 | KISQSILFMSGIKNAIA | QMEMREE | QQYHRLPLS | 0.66 / -0.58 / -0.14 / ND / -0.10 / 0.99 | 0/18 |
| 38 | KLSQAVNVTGKNKNSVA | ELSFREK | QQYDRLPLS | 2.05 / ND / ND / 2.38 / 2.31 / 1.99 | 1/18 (4.52) |
| 39 | TLSDLMHMESRNVNNVA | DLVKRES | QQYHRLPLS | 1.03 / 0.20 / 0.32 / 0.04 / 0.35 / 0.38 | 0/18 |
| 40 | KIGGVTNGISRNKNSVA | EQSTREQ | QQYNRLPLS | 0.66 / 0.60 / 0.55 / 0.55 / 0.56 / 0.99 | 1/18 (1.89) |
| 41 | ALSQSMDMTSRNTNSVA | DLTTREN | QQYHRLPLS | 0.30 / -0.02 / 0.07 / 0.00 / 0.06 / 0.22 | 1/18 (1.64) |
| 42 | NVGQLMDGESRNKNSVA | HQSTRED | QHYHRLPLS | 0.81 / 0.71 / 0.41 / 0.27 / 0.26 / 0.47 | 0/18 |
| 43 | IITQVDAYLSRNTNSIA | DQSTRGS | QQYDRLPLS | 0.93 / 1.39 / 1.33 / 1.24 / 1.51 / 1.14 | 1/18 (2.21) |
| 44 | KVSEMMAFLSRNRNSVA | DNSTRGA | QQYHRLPLS | 2.02 / 2.10 / 1.39 / 1.56 / 1.90 / 1.89 | 3/18 (3.32) |
| 45 | ILSDSVLMLSRNKNSVA | DNSTRES | QQYDRLPLS | 2.09 / 1.79 / 3.31 / 2.33 / 2.64 / ND | 1/18 (3.00) |
| 46 | HLSDTVMQGSYYRNSVA | QESTRAD | QQYHRLPLS | 1.28 / 1.44 / 0.61 / 1.31 / 0.32 / 0.64 | 0/18 |
| 47 | NFSQMVLTGSTLKNSVA | HANTREE | QQYHRLPLI | 1.25 / 1.61 / 1.40 / 1.31 / 1.55 / 1.57 | 1/18 (3.18) |
| 48 | TIGQSTLMESRNRNNVA | QMSTREK | QQYDRLPLS | 0.63 / 0.05 / -0.65 / 0.21 / 0.16 / -0.26 | 0/18 |

The last 7 entries again:

| CDR-L1 | CDR-L2 | CDR-L3 | log10 Kd, replicates | signal with controls |
|---|---|---|---|---|
| NVGQLMDGESRNKNSVA | HQSTRED | QHYHRLPLS | 0.81 / 0.71 / 0.41 / 0.27 / 0.26 / 0.47 | 0/18 |
| IITQVDAYLSRNTNSIA | DQSTRGS | QQYDRLPLS | 0.93 / 1.39 / 1.33 / 1.24 / 1.51 / 1.14 | 1/18 (2.21) |
| KVSEMMAFLSRNRNSVA | DNSTRGA | QQYHRLPLS | 2.02 / 2.10 / 1.39 / 1.56 / 1.90 / 1.89 | 3/18 (3.32) |
| ILSDSVLMLSRNKNSVA | DNSTRES | QQYDRLPLS | 2.09 / 1.79 / 3.31 / 2.33 / 2.64 / ND | 1/18 (3.00) |
| HLSDTVMQGSYYRNSVA | QESTRAD | QQYHRLPLS | 1.28 / 1.44 / 0.61 / 1.31 / 0.32 / 0.64 | 0/18 |
| NFSQMVLTGSTLKNSVA | HANTREE | QQYHRLPLI | 1.25 / 1.61 / 1.40 / 1.31 / 1.55 / 1.57 | 1/18 (3.18) |
| TIGQSTLMESRNRNNVA | QMSTREK | QQYDRLPLS | 0.63 / 0.05 / -0.65 / 0.21 / 0.16 / -0.26 | 0/18 |

Of ten entries with the parent sequence, four were seen in most replicates (averages 0.34 to 2.37), three in one and three in none, so single entries are noisy. Nonspecific signal, from three strains lacking the peptide, appeared in 4% of pairings of all light chain designs, centred on 2.64 (5% of these signals below 1.59); values are not corrected for it. For each scFv, signals with the empty controls are counted beside the result, with their mean in brackets. Values of this round are not directly comparable with the first-round values of the same sequences. In the paper, a design with two or fewer of six values counts as a poor binder.